Assay results: US12391685B2, “Inhibitors of RNA-guided nuclease target binding and uses thereof” (THE BROAD INSTITUTE, INC., priority 2018, dated 2025)

Sequences of proteins named here, by UniProt entry; tags and fusion partners are left off. A change or cut given only in a name is not applied to a line headed by its entry.
UniProt P14739: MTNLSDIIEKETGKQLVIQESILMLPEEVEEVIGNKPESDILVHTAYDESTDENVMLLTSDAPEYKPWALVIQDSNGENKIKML
UniProt P38483: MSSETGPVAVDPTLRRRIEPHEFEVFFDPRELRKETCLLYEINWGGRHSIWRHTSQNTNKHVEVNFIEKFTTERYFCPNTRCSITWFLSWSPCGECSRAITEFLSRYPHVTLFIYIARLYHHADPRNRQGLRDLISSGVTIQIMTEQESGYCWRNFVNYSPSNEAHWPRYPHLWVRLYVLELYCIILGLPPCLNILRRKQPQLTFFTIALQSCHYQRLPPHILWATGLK
UniProt Q99ZW2: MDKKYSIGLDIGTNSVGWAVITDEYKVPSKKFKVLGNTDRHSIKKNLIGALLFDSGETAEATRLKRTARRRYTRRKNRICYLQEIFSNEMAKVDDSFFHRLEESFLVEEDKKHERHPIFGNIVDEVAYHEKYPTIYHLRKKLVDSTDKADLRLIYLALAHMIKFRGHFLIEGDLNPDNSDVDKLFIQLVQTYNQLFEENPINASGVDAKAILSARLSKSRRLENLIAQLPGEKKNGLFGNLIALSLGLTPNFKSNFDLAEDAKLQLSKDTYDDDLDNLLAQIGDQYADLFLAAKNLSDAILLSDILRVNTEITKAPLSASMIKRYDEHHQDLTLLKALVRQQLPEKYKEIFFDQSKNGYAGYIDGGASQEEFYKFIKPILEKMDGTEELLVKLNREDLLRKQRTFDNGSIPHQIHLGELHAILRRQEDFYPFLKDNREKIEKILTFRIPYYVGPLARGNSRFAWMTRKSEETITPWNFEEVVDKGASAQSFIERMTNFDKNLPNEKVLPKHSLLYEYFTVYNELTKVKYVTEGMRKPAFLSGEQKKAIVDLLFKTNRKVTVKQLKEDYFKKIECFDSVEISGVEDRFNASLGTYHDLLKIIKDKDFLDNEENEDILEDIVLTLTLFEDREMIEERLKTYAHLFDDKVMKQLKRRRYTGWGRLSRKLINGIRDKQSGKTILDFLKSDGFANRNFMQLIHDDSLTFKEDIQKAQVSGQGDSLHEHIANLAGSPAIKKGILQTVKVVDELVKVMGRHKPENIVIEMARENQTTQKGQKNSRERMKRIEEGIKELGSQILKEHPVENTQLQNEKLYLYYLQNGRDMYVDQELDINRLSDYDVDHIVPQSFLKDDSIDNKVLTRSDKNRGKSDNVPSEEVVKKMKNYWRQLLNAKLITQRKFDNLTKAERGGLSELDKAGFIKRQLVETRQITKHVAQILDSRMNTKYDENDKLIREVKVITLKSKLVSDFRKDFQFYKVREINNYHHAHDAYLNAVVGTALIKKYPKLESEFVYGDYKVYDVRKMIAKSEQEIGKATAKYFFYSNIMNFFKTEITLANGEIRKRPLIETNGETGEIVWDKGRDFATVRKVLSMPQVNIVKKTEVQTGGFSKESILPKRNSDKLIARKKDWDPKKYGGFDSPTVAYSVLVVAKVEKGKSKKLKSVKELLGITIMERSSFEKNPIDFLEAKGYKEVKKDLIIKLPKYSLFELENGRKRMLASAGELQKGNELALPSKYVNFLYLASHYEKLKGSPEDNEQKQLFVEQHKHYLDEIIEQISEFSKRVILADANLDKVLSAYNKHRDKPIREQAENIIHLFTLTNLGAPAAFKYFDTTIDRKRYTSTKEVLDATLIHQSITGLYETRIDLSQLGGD

Biological target: T1, SpCas9 (A840H)-cytidine deaminase conjugate (BE3) (UniProt P14739+P38483+Q99ZW2, D10A)
T1 construct: His6 (N); made in house; host or cells: BL21 Star (DE3) E. coli; the protein:sgRNA complex was lipofected into HEK293T cells
Experiment: Base editing of EMX1 gene by BE3 in HEK293T cells
Type: cell-based
Details: 20 μM, 72 h
Description: Analysis of base-edited sequences. Nucleotide frequencies were analyzed using a previously described MATLAB script (Komor et al., 2016b). Briefly, the reads were aligned to the reference sequence via the Smith-Waterman algorithm. Base calls with Q-scores below 30 were replaced with a placeholder nucleotide (N). This quality threshold results in nucleotide frequencies with an expected theoretical error rate of 1 in 1,000. To distinguish small molecule-induced inhibition of C→T editing from artefactual C→T editing, Applicants compared the sequencing reads from cells treated with base-editor in the presence of small molecule to the sequencing reads from base-edited cells not exposed to small molecule. A Student's two-tailed t-test was used to determine if inhibition of C→T editing by small-molecule is statistically significant with P<0.05 as the threshold.
Protein transfection of base editor BE3 into HEK293T cells. […]
Purifications and sequencing of genomic DNA. […] Barcoded samples were pooled and purified by gel extraction (Qiagen) before quantification using the Qubit dsDNA HS Kit (Thermo Fisher) and qPCR (KAPA BioSystems) according to the manufacturer's instructions. Sequencing of pooled samples was performed using a single-end read from 260 to 300 bases (MiSeq, Illumina) according to the manufacturer's instructions.

Row | SMILES | reduction in C→T conversion
1 | OC[C@H]1Nc2ccc(-c3cccc(F)c3)cc2[C@H]2[C@@H]1CCN2Cc1ccncc1 [BRD7087, ((3aR,4S,9bR)-8-(3-Fluorophenyl)-1-(pyridin-4-ylmethyl)-2,3,3a,4,5,9b-hexahydro-1H-pyrrolo[3,2-c]quinolin-4-yl) methanol] | two-fold
2 | COc1ccc(-c2ccc3c(c2)[C@H]2[C@H](CCN2Cc2ccncc2)[C@@H](CO)N3)cc1 [BRD5779, ((3aR,4S,9bR)-8-(4-Methoxyphenyl)-1-(pyridin-4-ylmethyl)-2,3,3a,4,5,9b-hexahydro-1H-pyrrolo[3,2-c]quinolin-4-yl) methanol] | two-fold
